The numbers were not newly measured in PMC10674299, “Discovery of Guanfacine as a Novel TAAR1 Agonist: A Combination Strategy through Molecular Modeling Studies and Biological Assays” (Pharmaceuticals, 2023), which cites them from elsewhere.

The target in the data set is α2-ADR. The settings on record: read-out: α2-ADR Ki; cited from earlier work.

“And” between values parts separate entries of the source, which are not always exact repeats. Equal values may be shown once.

One may read the Ki as the equilibrium dissociation constant of an inhibitor or competing ligand from its target. Take `c1ccc(N(Cc2c[nH]cn2)C2CC2)cc1`: the inhibition constant (Ki) is 62 to 330 nM.

Consider `CC(C)N(Cc1ncc[nH]1)c1cccc(Cl)c1`, for which the Ki was 4350 nM.

For the compound `CN(Cc1ncc[nH]1)c1ccccc1`, the inhibition constant Ki is 254 to 497 nM.

For the compound `c1ccc(N(Cc2c[nH]cn2)c2ccccc2)cc1`, the inhibitory constant (Ki) was 62 nM and 62 to 330 nM.

Turning to `c1ccc(CN(Cc2c[nH]cn2)c2ccccc2)cc1`, the Ki was 128 to 521 nM.
